Yeast mating assay B: variants of the scFv Ab-14

Target peptide (SARS-CoV-2 spike, HR2 region): PDVDLGDISGINAS

Parent: Ab-14, a human scFv built as VH, a (GGGGS)3 linker, VL. Only the CDRs of the light chain vary.
VH: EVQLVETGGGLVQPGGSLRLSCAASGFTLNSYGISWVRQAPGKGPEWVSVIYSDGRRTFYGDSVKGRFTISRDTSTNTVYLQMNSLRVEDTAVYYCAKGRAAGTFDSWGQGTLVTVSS
VL: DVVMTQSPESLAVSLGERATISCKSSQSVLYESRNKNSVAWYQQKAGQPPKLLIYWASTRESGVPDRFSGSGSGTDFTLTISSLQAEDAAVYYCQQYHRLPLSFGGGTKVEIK

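The starting antibody came from a phage panning campaign against this peptide. This is the validation round: designs drawn from the data on random variants, tested in the same kind of assay. Several design methods are mixed in this list. Affinity was read by AlphaSeq, a pooled yeast mating assay with surface-displayed partners. Binding brings cells together so that they mate, and sequencing counts the barcode pairs among the diploids. Each replicate has its own calibration line, from reference interactions of the BCL2 family. Mating was done six times.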

Variants are written as CDR1, CDR2 and CDR3 of the light chain (limits as in the source). Parent: KSSQSVLYESRNKNSVA, WASTRES, QQYHRLPLS. Numbers give log10(Kd / nM), so 0 is 1 nM and 3 is 1 µM. Smaller is tighter. A mean of the replicates is given; it leaves out those without a signal. Where no diploid with the target was found in any replicate, the entry reads "no signal": below detection, most likely a poor binder, though not proof of it. Nonspecific signal, from three strains lacking the peptide, appeared in 4% of pairings of all light chain designs, centred on 2.64 (5% of these signals below 1.59); values are not corrected for it.

CDR-L1	CDR-L2	CDR-L3	log10 Kd (nM), mean	detected
KSSISYLYESMNKNSVA	HGSMRES	QQYHRLPLS	0.17	6/6
KSSQSHPDESRNKNSVA	WASTRES	QQYHRLPLS	1.67	5/6
KSSQSVLYESRNKNSVA	DANTRTS	QQYHRLPLS	0.27	6/6
KLVQSVLYESRNKNSVA	DASTRCS	QQYHRLPLS	-0.22	6/6
KISMMYNFASTNKNSIA	EMTTRES	QHYHRLPLS	1.16	6/6
KVYQGINTHLGAHNSIA	QEETRLQ	QQYAHLPLS	1.14	6/6
HMSESEHGDNVGVGNMA	NAQETVA	QQYMHLPLS	0.14	6/6
KSSQSVLYESCNKNSVA	AASTRES	FQYHRLPLS	no signal	0/6
SLYDATTMESRNKNPIA	DVSTRPS	QQYHRLPLS	0.09	6/6
KLSQSWLYESRNKNNVA	SASQRES	QQYHRLPLS	0.19	6/6
KISQEVLMESRNMNSVA	NASTREE	QQYHRLPLS	-0.25	6/6
FLAYASDQTGLQGNAIA	QVNLKEN	QQYMRLPLA	1.97	1/6
GSSQSVLYESRNSNSVA	WATTRLS	QQYHRLPLS	no signal	0/6
KVVQSHDYESRNKNSVA	DASTRCS	QQYHRLPLS	-0.05	6/6
KVEMSVPYEQRNKASVA	HASVRES	QQYHRLPLS	0.03	6/6
KSSQSVLYESRNKNSVA	WASTRES	QQRHRLPLS	no signal	0/6
KSQQSWLYESRNKNSVA	NASQRES	QQYHRLPLS	0.00	6/6
KLSMSMLMESRKKNSVA	ENSTREE	QHYHRLPLS	1.88	5/6
HMSFLTLGGMRQKNSVA	QMTTREN	QQYDHLPLS	1.60	6/6
KSSQLELYESRMKNSVA	NASYRED	QQYHRLPLS	1.20	6/6
HLGNEGDNQGNAKKSVA	DQSTVQL	QHYSRLPLT	2.43	2/6
KSSRSVLYESRNKNSVA	DASTRES	QQYHMLPLR	0.51	6/6
MISQLMNMGQFAINSVA	QANIRNA	QQYDRLPLA	1.32	6/6
KSSCSYLEESRNKNSVA	EASTRES	QQYHRLPLS	0.23	6/6
KIQQSVYYEDLNKNSVA	HASTRLQ	QQYHRLPLS	0.27	6/6
KIMQSLNYESFNKNSVA	GQTTRER	QSYHRLPLS	1.55	5/6

Continued, with the values leading:

log10 Kd (nM), mean	detected	CDR-L1	CDR-L2	CDR-L3
-0.22	6/6	KLSGSMLYQSRNSNAVA	EASQREQ	QQYHRLPLS
-0.29	6/6	KWSQSWLYESRNKNSVA	GASTRES	QQYHRLPLS
-0.06	6/6	KLQQSWEYESRNKNNVA	NGSQRED	QQYHRLPLS
0.76	6/6	KFNDAWPGDIQNNQNIA	SADTLNH	QQYAKLPLS
0.27	6/6	KLSQSHLYESRNKNSVA	EASTRLS	QQYHRLPLS
0.15	6/6	KLSQSYLYESRMKNSVA	NASQRES	QQYHRLPLS
0.89	6/6	KIYQSVLYESRNKNSVA	AASTRES	QQYHRLPLS
no signal	0/6	KSSNSELYESRNKNSVA	MASTRES	QQYHVLLLS
1.07	6/6	KMSVSLQQGIYRADSIA	STDIRVL	QQYYHLPLA
0.74	6/6	KIGMTLNTLMHTKNNVA	DLVMREH	QQYHRLPLS
0.51	6/6	IISQSFLGEYHNINSVA	QTSERGS	QQYDRLPLS
0.84	6/6	KHSQSVEYEARDKNSVA	MASTRMS	QQYHRLPLS
-0.09	6/6	KLSQSVMYWMRNKNSVA	NASTRES	QQYHRLPLS
2.47	3/6	HLLQTVMYGQTRKNSVA	HAVTREN	QQYHRLPLS
0.60	6/6	ILSQSVLMGMHTKNSVA	QATMRFN	QQYDRLPLM
0.61	6/6	SLYGEYALVDQHTDSIA	DANLMMH	QQYHRLPLA
1.88	6/6	KSSQSVLYESSNKNSVA	WASTRES	QQHHRLPLS
0.12	6/6	KLSQSQLYESRNKNSVA	GASIRES	QQYHRLPLS
-0.19	6/6	KFSQSQLYESRNKNSVA	NASTRCS	QQYHRLPLS
1.78	6/6	NVHALDNISSEFQNSIA	DQECRDA	QQYFRLPLS
2.19	5/6	KVTTNLEHQADRDNSIA	EADMVAA	QDYMRLPLI
0.61	6/6	KVMQSELYEDRNANNVA	NGSTRES	QQYHRLPLS
0.91	6/6	NFSQMVLTGSTLKNSVA	HASTRNE	QQYHRLPLI
0.04	6/6	KLWAYTQGLERNMQNIA	DGIYRVT	QQYGRLPLS
-0.23	6/6	KVSPSELYESRNKNSVA	DASTRES	QQYHRLPLS
1.96	4/6	TISGVMQQMSHNKSNVA	EVSMRLD	QQYFRLPLE
2.10	6/6	KSSQSVLIESRNKNSVA	WASTREN	QQYHRLPLS

Excerpt, the final 7 entries:

CDR-L1	CDR-L2	CDR-L3	log10 Kd (nM), mean	detected
KVTTNLEHQADRDNSIA	EADMVAA	QDYMRLPLI	2.19	5/6
KVMQSELYEDRNANNVA	NGSTRES	QQYHRLPLS	0.61	6/6
NFSQMVLTGSTLKNSVA	HASTRNE	QQYHRLPLI	0.91	6/6
KLWAYTQGLERNMQNIA	DGIYRVT	QQYGRLPLS	0.04	6/6
KVSPSELYESRNKNSVA	DASTRES	QQYHRLPLS	-0.23	6/6
TISGVMQQMSHNKSNVA	EVSMRLD	QQYFRLPLE	1.96	4/6
KSSQSVLIESRNKNSVA	WASTREN	QQYHRLPLS	2.10	6/6

A sequence measured in both rounds can read differently, since the two assays cover different ranges. The authors averaged sequences with at least three values out of six and counted those with two or fewer as poor binders. The parent sequence was in this pool as ten entries: three were never detected, three once, and four in most replicates, with averages from 0.34 to 2.37.

From the AlphaSeq antibody data of Li et al. 2023 (doi:10.1038/s41467-023-39022-2), copy in the FLAb collection.